US5280015A, “2-substituted adenosines and 2-substituted adenosine 5'-carboxamides” (priority 1990, dated 1994)

By UniProt entry, the sequences of proteins in these tests, tags left out. Residues count along the entry.
UniProt P25099, whole entry: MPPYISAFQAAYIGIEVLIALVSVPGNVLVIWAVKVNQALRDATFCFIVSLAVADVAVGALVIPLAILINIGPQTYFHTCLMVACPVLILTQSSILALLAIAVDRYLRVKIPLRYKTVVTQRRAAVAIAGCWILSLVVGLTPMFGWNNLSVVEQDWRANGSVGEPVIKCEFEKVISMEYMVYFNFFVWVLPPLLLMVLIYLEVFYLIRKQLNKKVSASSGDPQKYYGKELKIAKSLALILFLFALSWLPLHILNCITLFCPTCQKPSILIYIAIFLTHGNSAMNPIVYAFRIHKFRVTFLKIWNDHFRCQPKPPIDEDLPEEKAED
UniProt E1BKU0, 1-401: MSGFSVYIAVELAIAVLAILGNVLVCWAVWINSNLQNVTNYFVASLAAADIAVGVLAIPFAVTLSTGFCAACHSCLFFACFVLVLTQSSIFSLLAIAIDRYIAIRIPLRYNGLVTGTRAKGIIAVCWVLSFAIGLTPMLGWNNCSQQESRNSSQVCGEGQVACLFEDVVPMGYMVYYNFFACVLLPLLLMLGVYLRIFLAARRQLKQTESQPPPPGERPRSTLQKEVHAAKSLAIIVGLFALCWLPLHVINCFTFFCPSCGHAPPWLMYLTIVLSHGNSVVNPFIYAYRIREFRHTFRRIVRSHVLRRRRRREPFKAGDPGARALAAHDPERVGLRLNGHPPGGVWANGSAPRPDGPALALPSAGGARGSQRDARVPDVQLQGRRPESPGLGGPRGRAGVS
UniProt P30543, whole entry: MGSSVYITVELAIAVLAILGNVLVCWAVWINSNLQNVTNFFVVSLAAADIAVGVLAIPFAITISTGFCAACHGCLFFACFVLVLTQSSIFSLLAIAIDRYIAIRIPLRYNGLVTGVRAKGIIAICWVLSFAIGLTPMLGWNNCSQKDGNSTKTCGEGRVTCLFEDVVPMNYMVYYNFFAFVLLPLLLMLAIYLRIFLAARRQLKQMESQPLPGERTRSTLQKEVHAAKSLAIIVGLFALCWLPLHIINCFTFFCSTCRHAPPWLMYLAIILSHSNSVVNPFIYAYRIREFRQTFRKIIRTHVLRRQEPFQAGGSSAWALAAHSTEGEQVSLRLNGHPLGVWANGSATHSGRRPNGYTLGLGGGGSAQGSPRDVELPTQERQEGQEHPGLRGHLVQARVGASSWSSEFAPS

Key:
A1-adenosine receptors = biological target: T1, A1-adenosine receptors (Rattus norvegicus, UniProt P25099); test: Competitive binding assay at A1-adenosine receptors, rat cerebral cortex membranes ([3H]PIA or [3H]CHA); conditions: [3H]N6-cyclohexyladenosine (footnote c), read-out: Ki, inhibition of binding at A1-receptors using [3H]N6-cyclohexyladenosine
T1 construct: rat cerebral cortex membranes; from tissue; host or cells: rat cerebral cortex membranes

A2-adenosine receptors [1] = test: Competitive binding assay in bovine brain using 125I-PAPA-APEC (striatal membranes); conditions: ratio of Ki at A1-receptors (rat) versus Ki in the 125I-PAPA-APEC assay (bovine)
A2 adenosine receptors = A2 adenosine receptors (Bos taurus, UniProt E1BKU0); test: as above; parameters: Bovine striatal membranes; from tissue; host or cells: bovine (calf) striatal membranes; conditions: Ki, inhibition of binding of 125I-PAPA-APEC at A2-receptors, bovine striatum; 11, 12 and 14: apparent Ki
A2-adenosine receptors [2] = biological target: A2-adenosine receptors (Rattus norvegicus, UniProt P30543); test: Inhibition of binding of [3H]CGS21680 to A2-adenosine receptors in rat striatal membranes; parameters: rat striatal membranes; from tissue; host or cells: rat striatal membranes

Row | Compound | Ki (A2 adenosine receptors) | other results
1 | CCNC(=O)[C@H]1O[C@@H](n2cnc3c(N)nc(NCCc4ccc(CCC(=O)O)cc4)nc32)[C@H](O)[C@@H]1O [Compound 1, reference compound] |  | Ki (A1-adenosine receptors): 2600 ± 300 nM
2 | CCNC(=O)[C@H]1O[C@@H](n2cnc3c(N)nc(NCCc4ccc(CCC(=O)NCCNC(=S)NC5CC(C)(C)N([O])C(C)(C)C5)cc4)nc32)[C@H](O)[C@@H]1O [Compound 15] |  | Ki (A1)/K1 (A2) (A2-adenosine receptors [1]): 12
3 | CCNC(=O)[C@H]1O[C@@H](n2cnc3c(N)ncnc32)[C@H](O)[C@@H]1O [NECA, 5'-N-ethylcarboxamidoadenosine, reference compound] | 55 ± 26 nM | 
4 | C[C@H](Cc1ccccc1)Nc1ncnc2c1ncn2[C@@H]1O[C@H](CO)[C@@H](O)[C@H]1O [R-PIA, N^6 -phenylisopropyladenosine, reference compound] | 870 ± 270 nM | Ki (A2-adenosine receptors [2]): 410 ± 32 nM
5 | C[C@@H](Cc1ccccc1)Nc1ncnc2c1ncn2[C@@H]1O[C@H](CO)[C@@H](O)[C@H]1O [S-PIA, N^6 -phenylisopropyladenosine, reference compound] | 10300 nM | 
6 | Cn1c(=O)c2[nH]cnc2n(C)c1=O [theophylline] | 20300 nM | 
